Yeast UUG start-1: yeast start codon fidelity modulation; actives 0.13% (n = 350,000); activity score, % at 18.7 µM; S. cerevisiae UUG-firefly luciferase reporter, luminescence/redox ratio;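 active = replicate mean at a twofold rise or more, about +100% in these data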;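 note: firefly luciferase made from a UUG start codon reports start codon fidelity; reporter light over untreated wells divided by growth signal over untreated wells; some hits fall short of that in this replicate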
CFTR F508del cor: CFTR F508del correction in bronchial cells | CFBE cells, YFP halide quenching; stimulated with forskolin plus potentiator P3; % fluorescence drop versus neutral controls | activity (quench increase), % at 7.58 µM | 350,000 tested, 0.36% active | AID 720511;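 active = mean added fluorescence quench of at least 8% versus neutral control, with both replicates also reaching 8%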;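 note: cells transiently co-express mutant CFTR-F508del with the halide-sensitive YFP; corrector assay measuring rescue of mutant channel to the surface after 24 h compound exposure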
EWS-Fli block: inhibitors of EWS/Fli oncoprotein transcriptional activity | A673 NR0B1-luciferase reporter, viability-normalised | inhibition, % at 12.6 µM | 350,000 tested, 0.67% active | AID 651661;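 active = mean inhibition of at least 50% after viability correction, with every replicate also passing that limit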;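 note: firefly luciferase signal divided by Alamar Blue viability fluorescence both relative to DMSO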
miR-122 sensor: miR-122 inhibition in Huh7 cells | 340,000 tested, 0.3% active | Huh7 miR-122 Renilla luciferase sensor, 48 h; neutral wells = 0, positive control = 100 | activation (reporter increase), % at 12.5 µM | AID 602342;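 active = mean replicate activation score at least 90 and every replicate individually at or above 90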;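 note: higher luciferase means less miR-122 activity so hits act as miR-122 inhibitors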
PglD inh: inhibitors of Campylobacter jejuni PglD acetyltransferase; purified PglD enzyme, DTNB colorimetric CoA detection; inhibition, % at 12.5 µM; 360,000 tested, 0.098% active; AID 602405; in the data active = inhibition above about 16%, passing the limit was not always enough
LGR2 antag: blocks bursicon-induced cAMP signaling via Drosophila LGR2 | 380,000 tested, 0.35% active | inhibition, % at 9.99 µM | HEK293 LGR2, CRE-luciferase, bursicon-stimulated, 4 h;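 active = drop in luminescence signal, shown as inhibition above about 50% in the replicate tests, limit read from the data, passing the limit was not always enough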;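 note: agonist challenge used bursicon conditioned medium at about half maximal strength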
Yeast UUG start-2: yeast start codon fidelity modulation. activation, % at 38 µM. AID 652061. 540 tested, under 10 active. shares compounds with Yeast UUG start-1. S. cerevisiae UUG-start firefly luciferase, luminescence, 4 h; 100% means double the DMSO signal;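 active = signal increase whose fitted curve reaches an absolute level of 40 at a concentration under 10 µM; inactive = activity opposite to the expected increase, or the rest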
* marks the source's active call; other numbers are inactive results; i = inactive; . = not tested or not shown; [ ] = dose if it differs, or a comment. Only some compounds are listed: those with a hit (about 1.3% of all), similar ones and a draw of the others.

Compound | PglD inh | Yeast UUG start-2 | CFTR F508del cor | Yeast UUG start-1 | LGR2 antag | EWS-Fli block | miR-122 sensor
C[C@H](CO)N1C[C@H](C)[C@@H](CN(C)C(=O)CC2CC2)Oc2ncc(C#Cc3cccnc3)cc2C1=O | 2 | . | 2 | 13 | 2 | -2 | 28[16.7 µM]
O=C(CNC(=O)c1cccc(F)c1)OCC(=O)N1CCCCC1 | . | . | . | . | -1 | . | .
O=C(CNC(=O)c1cccc(F)c1)OCC(=O)N1CCN(C(=O)c2ccco2)CC1 | 7 | -2 | -3 | 213* | -8 | 6 | -3
BrC(=C\c1ccccc1)/C=N/N1CCN(Cc2ccccc2)CC1 | . | . | . | . | . | . | 7
CSc1ccc(S(=O)(=O)NC2CC2)cc1 | 2 | -4 | 0 | 155* | -3 | -3 | 4
N#C/C(=C\Nc1ccc2c(c1)OCCO2)C(=O)NCc1ccco1 | -3 | -4 | 0 | 102* | -11 | -26 | 0
C[C@@H]1CN([C@@H](C)CO)C(=O)Cc2cc(NS(=O)(=O)c3cccs3)ccc2O[C@@H]1CN(C)CC1CCCCC1 | 4 | . | 1 | -4 | -9 | -2 | 5[16.7 µM]
Cc1[nH]c2ccccc2c1/C=N/NC(=O)c1cc(-c2ccccc2)n[nH]1 | -9 | 1 | -2 | 169* | 23 | -2 | -5
Cc1ccc(-c2cc(-c3ccco3)c(C#N)c(=O)[nH]2)cc1 | . | . | 3 | . | 7 | -6 | .
CC(=O)Nc1ccc(S(=O)(=O)NCCC(=O)Nc2ccc(C)c(F)c2)cc1 | 10 | -1 | 0 | 200* | -9 | -6 | 10
CCOc1ccc(CCNS(=O)(=O)c2c(C)cc(C)cc2C)cc1OCC | . | i | . | . | . | . | .
COc1ccccc1Oc1nc2ccccn2c(=O)c1/C=C(\C#N)C(=O)Nc1c(C)n(C)n(-c2ccccc2)c1=O | -8 | 7 | 1 | 112* | . | 18 | -1
Cc1ccc(Oc2nc3ccccn3c(=O)c2/C=C(\C#N)C(=O)Nc2c(C)n(C)n(-c3ccccc3)c2=O)c(C)c1 | -14 | . | . | 7 | 6 | -5 | -6
Cc1cccc(N2CCN(C(=O)Cn3nc(Cc4ccncc4)c4ccccc4c3=O)CC2)c1C | -2 | 5 | -6 | -13 | 3 | 5 | -13
COc1ccccc1CN1[C@H](C(=O)NCc2ccccc2)[C@@H](CO)[C@@H]2Cn3c(cccc3=O)[C@@H]21 | 0 | . | 3 | . | -8 | 2 | 10[16.7 µM]
CN(C)C1=NC[C@H](Cc2ccccc2)N1CCCC1CCCC1 | -3 | 1 | 6 | 151* | -7 | 15 | 0
COc1ccc(CC(=O)Oc2ccc(C)cc2C)cc1 | -5 | . | -1 | -2 | 1 | 10 | .
COc1ccc(C/C(C)=N/NC(=O)c2ccc(C)cc2C)cc1 | -3 | -3 | 2 | 539* | -13 | 5 | -6
CCCCOc1ccc(C(=O)N2CCCCCC2)cc1 | -8 | . | . | -3 | . | . | -5
O=C(c1ccc(COc2ccc(Cl)cc2)cc1)N1CCCCC1 | -3 | 3 | -2 | 410* | -67 | -29 | -1

4 of the compounds above, as labelled records.
SMILES: Cc1cccc(N2CCN(C(=O)Cn3nc(Cc4ccncc4)c4ccccc4c3=O)CC2)c1C
  PglD inh: -2
  Yeast UUG start-2: 5
  CFTR F508del cor: -6
  Yeast UUG start-1: -13
  LGR2 antag: 3
  EWS-Fli block: 5
  miR-122 sensor: -13
SMILES: COc1ccccc1CN1[C@H](C(=O)NCc2ccccc2)[C@@H](CO)[C@@H]2Cn3c(cccc3=O)[C@@H]21
  PglD inh: 0
  Yeast UUG start-2: .
  CFTR F508del cor: 3
  Yeast UUG start-1: .
  LGR2 antag: -8
  EWS-Fli block: 2
  miR-122 sensor: 10[16.7 µM]
SMILES: CN(C)C1=NC[C@H](Cc2ccccc2)N1CCCC1CCCC1
  PglD inh: -3
  Yeast UUG start-2: 1
  CFTR F508del cor: 6
  Yeast UUG start-1: 151*
  LGR2 antag: -7
  EWS-Fli block: 15
  miR-122 sensor: 0
SMILES: COc1ccc(CC(=O)Oc2ccc(C)cc2C)cc1
  PglD inh: -5
  Yeast UUG start-2: .
  CFTR F508del cor: -1
  Yeast UUG start-1: -2
  LGR2 antag: 1
  EWS-Fli block: 10
  miR-122 sensor: .

Next section.
Compound | PglD inh | Yeast UUG start-2 | CFTR F508del cor | Yeast UUG start-1 | LGR2 antag | EWS-Fli block | miR-122 sensor
O=C(NCC[C@@H]1CC[C@H](NC(=O)c2cnccn2)[C@@H](CO)O1)Nc1ccc(F)cc1 | -3 | i | 4 | 159* | 15 | 3 | .
O=C(NCC[C@H]1CC[C@H](NS(=O)(=O)c2cccc(F)c2)[C@H](CO)O1)c1cnccn1 | 0 | i | -3 | 113* | -10 | -32 | .
O=C(NCC[C@H]1CC[C@H](NC(=O)c2cnccn2)[C@H](CO)O1)Nc1ccc(F)cc1 | -3 | . | -1 | -2 | -5 | -7 | .
O=C(NCC[C@H]1CC[C@@H](NS(=O)(=O)c2cccc(F)c2)[C@@H](CO)O1)c1cnccn1 | -1 | . | 1 | 90 | 10 | 1 | .
O=C(Nc1ccc(Cl)cc1)N[C@H]1CC[C@H](CCNC(=O)c2ccccc2F)O[C@H]1CO | 7 | i | 1 | 91* | -5 | 3 | .
C=CCO/N=C(/C)c1c(O)c(CC)c(-c2ccccc2)n(-c2ccccc2)c1=O | 1 | -4 | . | 280* | . | . | -2
COC(=O)CSc1nnc(-c2sc3ccccc3c2Cl)o1 | 8 | -5 | . | 565* | . | . | -2
N#CCSc1nnc(-c2sc3ccccc3c2Cl)o1 | . | -1 | . | . | -29 | . | .
O=c1cc(CO)occ1OCc1ccccc1 | 9 | 7 | . | 484* | . | . | -4
O=c1cc(CO)occ1OCc1c(F)cccc1Cl | -1 | . | -2 | -22 | -24 | -4 | 1

Screening results deposited in PubChem BioAssay by Broad Institute.
